From patent publication US6982249B1, “Bradykinin analogs as selective inhibitors of cell activation” (The Regents of the University of Michigan, priority 1997, dated 2006)

System: NAT12

Substance: alpha-thrombin
- cleavage product peak 2, as a share of the original NAT12 peak area: the new peaks constituting 44% (peak 3) and 37% (peak 2), respectively, of the original peak area
- cleavage product peak 3, as a share of the original NAT12 peak area: the new peaks constituting 44% (peak 3) and 37% (peak 2), respectively, of the original peak area
- reduction of the NAT12 HPLC peak area (peak 1) after 8 nM alpha-thrombin, 1 h at 37 °C: its peak area was reduced by 81%
